Assays:
PRMT3 = PRMT3 (Homo sapiens, UniProt O60678)
PRMT4 = PRMT4 (Homo sapiens, UniProt Q86X55)
PRMT6 = PRMT6 (Homo sapiens, UniProt Q96LA8); settings: increasing Enzyme:SAM:Compound A preincubation times
PRMT8 = PRMT8 (Homo sapiens, UniProt Q9NR22); settings: increasing Enzyme:SAM:Compound A preincubation times
[1] = 60 minute SAM:Enzyme:Compound A preincubation
[2] = increasing Enzyme:SAM:Compound A preincubation times

Amino acid sequences for entries named in this document (tags omitted). A change or cut given only in a name is not applied to a line headed by its entry.
UniProt O60678: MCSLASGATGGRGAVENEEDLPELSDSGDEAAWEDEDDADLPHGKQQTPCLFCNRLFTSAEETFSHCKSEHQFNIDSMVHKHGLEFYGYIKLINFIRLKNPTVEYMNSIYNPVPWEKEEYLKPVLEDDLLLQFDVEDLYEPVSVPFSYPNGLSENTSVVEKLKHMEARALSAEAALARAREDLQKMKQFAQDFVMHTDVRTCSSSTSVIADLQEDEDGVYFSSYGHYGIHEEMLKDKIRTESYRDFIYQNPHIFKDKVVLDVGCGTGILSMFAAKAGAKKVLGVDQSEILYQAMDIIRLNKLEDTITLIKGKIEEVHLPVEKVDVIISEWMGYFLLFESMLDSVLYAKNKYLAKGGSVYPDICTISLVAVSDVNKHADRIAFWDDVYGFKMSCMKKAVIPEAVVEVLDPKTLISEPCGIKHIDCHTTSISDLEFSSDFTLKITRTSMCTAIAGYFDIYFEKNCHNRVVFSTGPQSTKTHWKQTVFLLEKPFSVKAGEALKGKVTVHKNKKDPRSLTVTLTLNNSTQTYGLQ
UniProt Q86X55: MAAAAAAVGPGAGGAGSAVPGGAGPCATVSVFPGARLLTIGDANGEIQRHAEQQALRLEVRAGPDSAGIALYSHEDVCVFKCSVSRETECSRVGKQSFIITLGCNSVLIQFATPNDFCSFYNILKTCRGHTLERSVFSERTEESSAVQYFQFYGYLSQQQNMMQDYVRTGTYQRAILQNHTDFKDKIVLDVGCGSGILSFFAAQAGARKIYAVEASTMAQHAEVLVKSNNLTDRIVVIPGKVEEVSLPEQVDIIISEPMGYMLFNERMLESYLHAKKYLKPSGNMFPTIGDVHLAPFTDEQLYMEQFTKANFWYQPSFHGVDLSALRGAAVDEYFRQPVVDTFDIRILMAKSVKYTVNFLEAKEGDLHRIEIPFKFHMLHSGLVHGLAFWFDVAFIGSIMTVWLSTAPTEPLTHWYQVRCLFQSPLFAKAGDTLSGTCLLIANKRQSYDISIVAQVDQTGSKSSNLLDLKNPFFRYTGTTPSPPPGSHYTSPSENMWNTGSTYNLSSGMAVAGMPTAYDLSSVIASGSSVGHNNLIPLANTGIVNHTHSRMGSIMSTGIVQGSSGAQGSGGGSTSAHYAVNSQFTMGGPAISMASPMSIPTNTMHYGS
UniProt Q96LA8, whole entry: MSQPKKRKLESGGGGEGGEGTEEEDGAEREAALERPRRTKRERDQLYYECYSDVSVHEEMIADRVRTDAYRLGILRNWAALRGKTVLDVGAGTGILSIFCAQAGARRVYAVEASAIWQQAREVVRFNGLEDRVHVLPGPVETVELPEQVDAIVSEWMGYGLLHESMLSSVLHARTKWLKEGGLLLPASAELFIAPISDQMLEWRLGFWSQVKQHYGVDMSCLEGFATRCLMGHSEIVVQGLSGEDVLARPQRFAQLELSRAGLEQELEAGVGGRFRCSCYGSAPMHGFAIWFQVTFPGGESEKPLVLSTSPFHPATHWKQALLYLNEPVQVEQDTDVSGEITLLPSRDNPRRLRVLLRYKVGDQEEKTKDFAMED
UniProt Q9NR22, whole entry: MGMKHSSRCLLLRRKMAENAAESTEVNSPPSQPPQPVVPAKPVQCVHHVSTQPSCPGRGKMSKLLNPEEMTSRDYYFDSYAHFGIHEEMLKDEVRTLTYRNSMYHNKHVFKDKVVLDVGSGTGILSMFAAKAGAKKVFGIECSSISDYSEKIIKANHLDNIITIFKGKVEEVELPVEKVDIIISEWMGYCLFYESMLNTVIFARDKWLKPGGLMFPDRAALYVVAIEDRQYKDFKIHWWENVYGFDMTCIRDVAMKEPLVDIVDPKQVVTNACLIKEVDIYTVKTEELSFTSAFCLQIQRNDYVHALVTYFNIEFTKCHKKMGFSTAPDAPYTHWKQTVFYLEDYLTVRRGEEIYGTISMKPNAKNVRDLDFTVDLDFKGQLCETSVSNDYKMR

CCOCC1(COCC)CCC(c2n[nH]cc2CN(C)CCNC)CC1 [Compound A]
inhibition of activity (PRMT3; [1]): inhibited the activity
time dependence of inhibition (PRMT3; [2]): no time dependent behavior
inhibition of activity (PRMT4; [1]): inhibited the activity
time dependence of inhibition (PRMT4; [2]): time dependent inhibitor
time dependence of inhibition (PRMT6): time dependent inhibitor
time dependence of inhibition (PRMT8): time dependent inhibitor

— patent US20190365710A1, “METHODS OF TREATING CANCER” (GlaxoSmithKline Intellectual Property Development Limited, priority 2016, published 2019)
